Results reported in patent EP4755401A1, “PHARMACEUTICAL COMPOSITION CONTAINING ANTIBODY-DRUG CONJUGATE OF GLUCOCORTICOID” (Jiangsu Hengrui Pharmaceuticals Co., Ltd., priority 2023, dated 2025).

What was measured:
[1] = target: T1, Biotin-labeled human-derived IL-4Rα protein (SinoBiological, CAT# 10402-H08H-B) (human, UniProt P24394 26-232, biotin-labeled (site not stated)); experiment: SPR, Biacore 8K, biotin-hIL-4Rα captured on SA chip, test protein as analyte
T1 construct: Bought reagent, captured on an SA sensor chip; also called hIL-4Rα; human-derived IL-4Rα antigen protein
T1 sequence (looked up): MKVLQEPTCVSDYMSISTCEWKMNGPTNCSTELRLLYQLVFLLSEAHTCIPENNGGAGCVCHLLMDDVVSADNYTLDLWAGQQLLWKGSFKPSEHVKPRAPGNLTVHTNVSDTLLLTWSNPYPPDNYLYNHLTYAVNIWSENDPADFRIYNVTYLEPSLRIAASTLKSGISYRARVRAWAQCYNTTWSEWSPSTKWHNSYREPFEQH

[2] = target: T2, human-derived IL-4Rα on expressing cells (human, UniProt P24394 26-825); experiment: flow cytometry on TF-1 cells expressing IL-4Rα, anti-hFab-FITC detection
T2 construct: whole, on cells; TF-1 and Karpas 299 cell lines were identified to express IL-4Rα; Also used here as the target of the HEK-Blue IL-4/IL-13 reporter assay; also called IL-4Rα expressed on TF-1 cells
T2 sequence (looked up): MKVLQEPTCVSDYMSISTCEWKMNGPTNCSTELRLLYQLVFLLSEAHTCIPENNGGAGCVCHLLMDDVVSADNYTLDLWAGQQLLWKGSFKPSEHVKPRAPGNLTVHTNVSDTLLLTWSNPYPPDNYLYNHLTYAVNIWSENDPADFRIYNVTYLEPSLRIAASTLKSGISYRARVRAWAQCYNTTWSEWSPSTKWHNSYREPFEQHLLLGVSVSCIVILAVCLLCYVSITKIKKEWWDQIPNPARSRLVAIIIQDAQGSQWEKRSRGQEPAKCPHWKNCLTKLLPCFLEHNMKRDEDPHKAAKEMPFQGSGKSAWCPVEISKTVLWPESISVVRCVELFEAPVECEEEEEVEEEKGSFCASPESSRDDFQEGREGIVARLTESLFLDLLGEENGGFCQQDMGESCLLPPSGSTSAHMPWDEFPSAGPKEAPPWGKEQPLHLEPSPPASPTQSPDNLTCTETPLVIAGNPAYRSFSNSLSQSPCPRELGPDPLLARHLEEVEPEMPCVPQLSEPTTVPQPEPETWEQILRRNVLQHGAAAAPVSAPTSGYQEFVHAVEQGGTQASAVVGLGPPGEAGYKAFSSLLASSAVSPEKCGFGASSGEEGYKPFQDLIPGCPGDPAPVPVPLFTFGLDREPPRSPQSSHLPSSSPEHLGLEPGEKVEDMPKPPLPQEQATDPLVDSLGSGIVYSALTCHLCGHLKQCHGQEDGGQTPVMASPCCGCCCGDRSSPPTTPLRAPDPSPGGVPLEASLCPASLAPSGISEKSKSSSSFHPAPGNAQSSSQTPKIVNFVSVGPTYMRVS

B1: antibody-drug conjugate ADC-2 (Fab, V domains shown)
VH: EVQLVESGGGLVQPGGSLRLSCAASGFTFSDYGMHWVRQAPGKGLEWVAFISSGSSIIYYADIVKGRSTISRDNAKNTLYLQMNSLRAEDTAVYYCTRGNKRGFFDYWGQGTLVTVSS
VL: EIVLTQSPATLSLSPGERATLSCRASSSVPYMYWYQQKPGQAPRLLIYLTSNLASGIPARFSGSGSGTDFTLTISSLEPEDFAVYYCQQWRAYPPMLTFGGGTKVEIKR
modifications: budesonide drug-linker (compound 2, maleimide) conjugated after TCEP reduction of 25G7-Fab; conjugated residues and drug load not stated
Work on B1 yielded a Kd [1] of 0.011 nM and an EC50 [2] of 0.107 nM.
